From publication PMC13450841 (PLOS Pathogens, 2026)

Tested on: P. aeruginosa strain PA48386
Settings: 16-point scale

O=C([O-])CC(O)(CC(=O)[O-])C(=O)[O-].O=C([O-])CC(O)(CC(=O)[O-])C(=O)[O-].[Bi+3].[K+].[K+].[K+] [Bis, bismuth subcitrate]
Clinical score: median at 48h: 10.75
Clinical score: mean ±SD at 24h (Bis 50 µM, Zp 20 µM, Pol 1 µM topical at 30 min, 4 h, 24 h, no treatment 5.65 ± 2.83): 4.99 ± 3.60
Clinical score: mean SD at 48h (no treatment 10.53 ± 4.40): 9.05 ± 5.27
Clinical score: median at 24h (same cohort): 5.50
